# Measured values: paper PMC7400207, “It Takes Two: Dimerization Is Essential for the Broad-Spectrum Predatory and Defensive Activities of the Venom Peptide Mp1a from the Jack Jumper Ant Myrmecia pilosula” (Biomedicines, 2020)
# What was measured:
# HEK293 cells = conditions: HEK293, 24 h, resazurin; cited from earlier work
# Protocol: (§1) Table 2 Summary of bioassay data for synthetic Mp1a and analogues, including effective concentration (EC50) for activation of F11 cells, concentrations that caused 50% inhibition (IC50) for inhibition of larval development of H. contortus; median lethal dose (LD50) for lethal insecticidal effects on D. melanogaster; concentrations required to induce 50% cell death (CC50) for effects on viability o | column: Cytotoxicity (CC50 µM) ^b
# A. baumannii ATCC 19606 [1] = experiment: MIC dilution assay; assay type: cell-based; conditions: selectivity
# Protocol: Compounds were serially diluted in cation-adjusted Mueller Hinton Broth (CaMHB) twofold across the wells of non-binding surface 96-well plates (Corning), plated in duplicate. Bacteria (strains listed in Table 1) were cultured in CaMHB at 37 °C overnight, then diluted 40-fold and incubated at 37 °C for a further 2–3 h. The resultant mid-log phase cultures were diluted in CaMHB and added to each well of the compound-containing 96-well plates to give a final cell density of 5 × 10^5 CFU/mL, and a final compound concentration range of 0.06–128 μg/mL. The plates were covered and incubated at 37 °C for 20 h. Inhibition of bacterial growth was determined visually, where the minimum inhibitory concentration (MIC) was recorded as the lowest compound concentration that yielded no visible growth.
# Haemonchus contortus = assay type: cell-based
# Protocol: Sheep were infected with H. contortus Kirby isolate (field isolate from the University of New England Kirby Research Farm in 1986; susceptible to all commercial anthelmintics) and housed at the Commonwealth Scientific and Industrial Research Organisation (CSIRO) FD McMaster Laboratory, Armidale, NSW. All animal procedures were approved by the FD McMaster Animal Ethics Committee, CSIRO (Approval Number AEC 17/12, approval date 15.6.2017). Eggs were prepared from overnight fecal collection as described. In brief, feces were filtered through mesh filters, settled, and supernatant removed by vacuum. Eggs were recovered by density centrifugation using 10 and 25% (w/v) sucrose solutions, centrifuged at 650× g for 7 min. Eggs were recovered from the interface of the two sucrose layers, rinsed with distilled water, sterilized with bleach, rinsed again, and diluted to 4500 eggs/mL. Tylosin tartrate (800 μg/mL) and amphotericin B (25.0 μg/mL) were added, and eggs were used immediately for larval development assays.
# Assays were conducted using 96-well microtitre plates, with each well containing 50 μL of 2% agar, 20 μL of egg solution and 20 μL of peptide solution in water. […] Larvae that had developed to the infective L3 stage were counted, and the numbers in treated assay wells were expressed as a percentage of the number of infective L3 stage larvae in multiple control wells. […]
# human red blood cells = conditions: cited from earlier work
# Protocol: as §1, with “Hemolysis (HC50” for “Cytotoxicity (CC50”
# Drosophila melanogaster = Drosophila melanogaster microinjection assay; assay type: in vivo; conditions: intrathoracic injection, 50 nL, adult female flies, lethality at 24 h; three dose-response curves, ± SEM
# Protocol: The insecticidal activity of the chemically synthesized 1a and analogues thereof were determined by injection into adult female D. melanogaster aged 3–5 days (mass 0.7–0.9 mg) as described previously. Analogues were dissolved in water and intrathoracically injected using pulled glass capillaries at a volume of 50 nL per fruit fly, and the results were compared against an equivalent injection volume of water alone. All injections were performed in the morning or early afternoon. At 24 h post-injection flies were monitored for lethality. Dose–response curves were constructed using 7–10 doses per analogue (each dose tested in eight flies) and three separate dose–response curves were constructed for each analogue. The lethality in the groups receiving the analogues were adjusted using the respective control group lethality using the Henderson-Tilton formula [20]. The median lethal dose (LD50) of each analogue was calculated based on the three dose–response curves using GraphPad Prism 8.0 [21]. One-way ANOVA followed by Dunnett’s multiple comparison test were used to compare LD50 values.
# A. baumannii ATCC 19606 [2] = conditions: strain not stated at b53, analogues 1-4 previously assayed; cited from earlier work
# F11 cells = experiment: FLIPR calcium assay, activation of F11 cells; assay type: cell-based
# Protocol: F11 cells were cultured as previously described. Cells were maintained on Ham’s F12 media supplemented with 10% fetal bovine serum (FBS), 100 µM hypoxanthine, 0.4 µM aminopterin, and 16 µM thymidine (Hybri-MaxTM, Sigma Aldrich, North Ryde, Australia). Then, 384-well imaging plates (Corning) were seeded 48 h prior to imaging resulting in 90–95% confluence at imaging. Cells were incubated for 30 min with the Calcium 4 assay component A according to the manufacturer’s instructions (Molecular Devices, Sunnyvale, CA, USA) in physiological salt solution (PSS; composition in mM: 140 NaCl, 11.5 D-glucose, 5.9 KCl, 1.4 MgCl2, 1.2 NaH2PO4, 5 NaHCO3, 1.8 CaCl2, 10 HEPES) at 37°C. Fluorescence was measured using a fluorescent imaging plate reader (FLIPR^TETRA) equipped with a CCD camera (Excitation: 470–490 nm, Emission: […]) (Molecular Devices, Sunnyvale, CA, USA). Signals were read every second for 10 s before, and 300 s after the addition of peptides in PSS supplemented with 0.1% bovine serum albumin. All data are the mean ± SEM of assays performed in triplicate. Maximum–minimum fluorescence in the 300 s period after peptide addition was recorded as the response. Concentration–response data were fitted with a four-parameter Hill equation (variable slope) using GraphPad Prism 8 to obtain effective concentration (EC50) values.
compound,measurement,setting,value
CC[C@H](C)[C@H](N)C(=O)N[C@@H](CC(=O)O)C(=O)N[C@@H](Cc1c[nH]c2ccccc12)C(=O)N[C@@H](CCCCN)C(=O)N[C@@H](CCCCN)C(=O)N[C@H](C(=O)N[C@@H](CC(=O)O)C(=O)N[C@@H](Cc1c[nH]c2ccccc12)C(=O)N[C@@H](CCCCN)C(=O)N[C@@H](CCCCN)C(=O)N[C@H](C(=O)N[C@@H](CO)C(=O)N[C@@H](CCCCN)C(=O)N[C@@H](CCCCN)C(=O)N[C@H](C(=O)N[C@@H](CSSC[C@H](NC(=O)[C@@H](NC(=O)CNC(=O)[C@H](CCCCN)NC(=O)[C@H](CO)NC(=O)[C@@H](NC(=O)[C@H](CC(C)C)NC(=O)CNC(=O)[C@@H](NC(=O)[C@@H](N)CC(C)C)[C@@H](C)CC)C(C)C)[C@@H](C)O)C(=O)N[C@H](C(=O)N[C@@H](CC(C)C)C(=O)N[C@H](C(=O)N[C@@H](CCCCN)C(=O)N[C@H](C(=O)N[C@H](C(=O)N[C@@H](CSCNC(C)=O)C(=O)N[C@@H](CCCCN)C(=O)N[C@@H](CCCCN)C(=O)N[C@H](C(=O)N[C@@H](CC(C)C)C(=O)N[C@@H](CCCCN)C(=O)N[C@@H](CCC(N)=O)C(N)=O)C(C)C)C(C)C)[C@@H](C)O)C(C)C)C(C)C)C(=O)N[C@@H](CCCCN)C(=O)N[C@H](C(=O)N[C@@H](CCSC)C(=O)N[C@@H](CC(C)C)C(=O)N[C@@H](CCCCN)C(=O)N[C@@H](C)C(=O)N[C@@H](CSCNC(C)=O)C(=O)N[C@@H](CCCCN)C(=O)N[C@@H](Cc1ccccc1)C(=O)N[C@@H](CC(C)C)C(N)=O)C(C)C)[C@@H](C)O)C(C)C)C(C)C [Analogue 2b],Cytotoxicity (CC50),HEK293 cells,> 10 µM
same,Fold by which MIC against A. baumannii is lower than EC50 against F11 cells,A. baumannii ATCC 19606 [1],approximately 1500 fold
same,IC50,"Haemonchus contortus; H. contortus Kirby isolate, egg to infective L3, 6 days, 26 °C, three experiments of duplicate assays, ± SEM, for 1a the component at higher concentrations (about 90% of population), read-out: Anthelmintic Activity (IC50), inhibition of larval development",65.6 ± 14.7 µM
same,"Fold less active than 1a, anthelmintic activity","Haemonchus contortus; ratio of IC50 values, larval development",four- to eightfold
same,Hemolysis (HC50),human red blood cells,> 10 µM
same,Insecticidal Activity (LD50),Drosophila melanogaster,> 600 pmol/g
same,minimum inhibitory concentration,A. baumannii ATCC 19606 [2],0.025 to 0.1 µM
same,Concentration at which cytolysis (rapid increase in fluorescence followed by decrease to or below baseline) was observed,"F11 cells; F11 cells, FLIPR",100 µM
same,EC50,"F11 cells; F11 cells, FLIPR, Calcium 4 dye, max-min fluorescence in 300 s after peptide addition, PSS with 0.1% BSA, mean ± SEM, triplicate, read-out: Neuronal Cell Activation (EC50)",38.5 ± 2.3 µM
same,"Fold less active than native Mp1a (1a), F11 cell activation",F11 cells; ratio of EC50 values,45 fold
